{"source": "patent US20240316213A1", "about": "“ANTIBODY-PROTAMINE FUSIONS AS TARGETING COMPOUNDS OF A PROTAMINE-BASED NANOPARTICLE” (Universität Münster, priority 2021, published 2024)", "key": {"[1]": {"target": "EGFR (epithelial growth factor receptor) on cells (UniProt P00533)", "assay": "cell-based or functional assay"}, "[2]": {"target": "EGFR (epithelial growth factor receptor) on cells (UniProt P00533)", "assay": "cell-based or functional assay", "remark": "listed apart in the source"}}, "note": "Read-outs that look alike come from different tables or passages of the source.", "data": [{"substance": "cetuximab (anti-EGFR-mAB)-SMCC-protamine conjugate (antibody)", "values": [{"measurement": "internalisation of Alexa488-siRNA into RD cells (FACS)", "setting": "[1]", "value": "< 90 % of cells"}, {"measurement": "internalisation of Alexa488-siRNA into RD cells (FACS)", "setting": "[2]", "value": "> 90 % of cells"}]}]}
